# Measurements: patent US20040197335A1, “Non-myeloablative tolerogenic treatment with tyrphostins” (priority 2003, published 2004)
# Test system: Mice with donor skin graft
# Assay: Skin grafting after tolerogenic treatment (TLI, donor bone marrow cells, tyrphostin, cyclophosphamide)
# Assay type: in vivo
# Conditions: s.c., 300 mg in 30 μl per injection
structure (smiles),measurement,setting,value
COc1ccc(C=C(C#N)C#N)cc1,Survivors after 50 days (%),,(30%)
same,Survivors after 100 days (%),,(30%)
same,Survivors after 50 days,survivors/total,2/6
same,Survivors after 100 days,survivors/total,2/6
